This series has as its system male Sprague-Dawley rats. As to the kind of experiment: Rat Tolerance/Dependence Study (28 day).

Consider `O=C1CN2c3c(cccc3[C@@H]3CN(CCCOc4ccc(F)cc4)CC[C@@H]32)N1` [Example 2, (6bR,10aS)-8-(3-(4-fluorophenoxy)propyl)-6b,7,8,9,10,10a-hexahydro-1H-pyrido[3′,4′:4,5]pyrrolo[1,2,3-de]quinoxalin-2(3H)-one], for which the “effect on animal body weight, food and water intake or body temperature” value (both doses (0.3 and 3 mg/kg s.c.), on-dose or withdrawal phase) is on record as “no significant effect”. For the setting “higher dose (3 mg/kg)”, the “main behavioral and physical signs” value was “hunched posture, subdued behavior, Straub tail, tail rattle and piloerection”. Besides, under “repeated administration at 0.3 mg/kg”, the “predominant behavioral and physical effects, dosing phase” value was “hunched posture, Straub tail and piloerection”.

Values taken from US12173004B2, “Pharmaceutical compositions comprising heterocycle fused gamma carboline prodrugs” (INTRA-CELLULAR THERAPIES, INC., priority 2017, dated 2024).
